Assay: In vivo half life of hSA-binder/flag/biotin 26-amino acid constructs
Details: in vivo experimentation
Description: 26-amino acid sequences were prepared, each comprising an hSA binder portion (11 amino acids and comprising a cysteine-proline-cysteine sequence capable of forming a disulfide bridge and a turn in the molecule), a first spacer (3 amino acids), a flag portion (8 amino acids), and a second spacer (4 amino acids). The second spacer terminated in an amino group and also comprised a covalently attached biotin moiety. At the other terminus, an acetyl group was present. Three different sequences were prepared, with the final amino acid at the acetyl-terminus varied between alanine (the control compound), arginine (construct 1), and lysine (construct 2).

Row | SMILES | half-life [h]
1 | CC[C@H](C)[C@H](NC(=O)[C@H](CC(C)C)NC(=O)[C@H](CCCNC(=N)N)NC(C)=O)C(=O)N[C@@H](CCC(=O)O)C(=O)N[C@@H](CC(=O)O)C(=O)N[C@H](C(=O)N[C@H]1CSSC[C@@H](C(=O)N[C@@H](CC(C)C)C(=O)N[C@@H](Cc2c[nH]c3ccccc23)C(=O)NCCC(=O)N[C@@H](CO)C(=O)NCC(=O)N[C@@H](CC(=O)O)C(=O)N[C@@H](Cc2ccc(O)cc2)C(=O)N[C@@H](CCCCN)C(=O)N[C@@H](CC(=O)O)C(=O)N[C@@H](CC(=O)O)C(=O)N[C@@H](CC(=O)O)C(=O)N[C@@H](CC(=O)O)C(=O)N[C@@H](CCCCN)C(=O)NCCC(=O)N[C@@H](CO)C(=O)NCC(=O)N[C@@H](CCCCNC(=O)CCCC[C@@H]2SC[C@@H]3NC(=O)N[C@@H]32)C(N)=O)NC(=O)[C@@H]2CCCN2C1=O)[C@@H](C)CC [construct 1] | 34
2 | CC[C@H](C)[C@H](NC(=O)[C@H](CC(C)C)NC(=O)[C@H](CCCCN)NC(C)=O)C(=O)N[C@@H](CCC(=O)O)C(=O)N[C@@H](CC(=O)O)C(=O)N[C@H](C(=O)N[C@H]1CSSC[C@@H](C(=O)N[C@@H](CC(C)C)C(=O)N[C@@H](Cc2c[nH]c3ccccc23)C(=O)NCCC(=O)N[C@@H](CO)C(=O)NCC(=O)N[C@@H](CC(=O)O)C(=O)N[C@@H](Cc2ccc(O)cc2)C(=O)N[C@@H](CCCCN)C(=O)N[C@@H](CC(=O)O)C(=O)N[C@@H](CC(=O)O)C(=O)N[C@@H](CC(=O)O)C(=O)N[C@@H](CC(=O)O)C(=O)N[C@@H](CCCCN)C(=O)NCCC(=O)N[C@@H](CO)C(=O)NCC(=O)N[C@@H](CCCCNC(=O)CCCC[C@@H]2SC[C@@H]3NC(=O)N[C@@H]32)C(N)=O)NC(=O)[C@@H]2CCCN2C1=O)[C@@H](C)CC [construct 2] | 53
3 | CC[C@H](C)[C@H](NC(=O)[C@H](CC(C)C)NC(=O)[C@H](C)NC(C)=O)C(=O)N[C@@H](CCC(=O)O)C(=O)N[C@@H](CC(=O)O)C(=O)N[C@H](C(=O)N[C@H]1CSSC[C@@H](C(=O)N[C@@H](CC(C)C)C(=O)N[C@@H](Cc2c[nH]c3ccccc23)C(=O)NCCC(=O)N[C@@H](CO)C(=O)NCC(=O)N[C@@H](CC(=O)O)C(=O)N[C@@H](Cc2ccc(O)cc2)C(=O)N[C@@H](CCCCN)C(=O)N[C@@H](CC(=O)O)C(=O)N[C@@H](CC(=O)O)C(=O)N[C@@H](CC(=O)O)C(=O)N[C@@H](CC(=O)O)C(=O)N[C@@H](CCCCN)C(=O)NCCC(=O)N[C@@H](CO)C(=O)NCC(=O)N[C@@H](CCCCNC(=O)CCCC[C@@H]2SC[C@@H]3NC(=O)N[C@@H]32)C(N)=O)NC(=O)[C@@H]2CCCN2C1=O)[C@@H](C)CC [control, reference compound] | 0.16

— US20130165628A1, “Double Binding Constructs” (SRI INTERNATIONAL, priority 2011, published 2013)
